Data published in article PMC3310271 (Journal of agricultural and food chemistry, 2011).

Assay: TIM-1 gastrointestinal model bioaccessibility of maqui berry anthocyanins
Type: in vitro ADME

OC[C@H]1O[C@@H](Oc2cc3c(O)cc(O)cc3[o+]c2-c2ccc(O)c(O)c2)[C@H](O[C@@H]2OC[C@@H](O)[C@H](O)[C@H]2O)[C@@H](O)[C@@H]1O.[Cl-] [Cyanidin-3-sambubioside]
Total Bioaccessibility as % of intake: 0.75 +/− 0.75 % of intake
